pKi: −log10 of the molar value.
Molecular target: Mu-type opioid receptor (Homo sapiens, UniProt P35372)

The chains behind the UniProt entries cited, without tags or fusion partners.
UniProt P35372, whole entry: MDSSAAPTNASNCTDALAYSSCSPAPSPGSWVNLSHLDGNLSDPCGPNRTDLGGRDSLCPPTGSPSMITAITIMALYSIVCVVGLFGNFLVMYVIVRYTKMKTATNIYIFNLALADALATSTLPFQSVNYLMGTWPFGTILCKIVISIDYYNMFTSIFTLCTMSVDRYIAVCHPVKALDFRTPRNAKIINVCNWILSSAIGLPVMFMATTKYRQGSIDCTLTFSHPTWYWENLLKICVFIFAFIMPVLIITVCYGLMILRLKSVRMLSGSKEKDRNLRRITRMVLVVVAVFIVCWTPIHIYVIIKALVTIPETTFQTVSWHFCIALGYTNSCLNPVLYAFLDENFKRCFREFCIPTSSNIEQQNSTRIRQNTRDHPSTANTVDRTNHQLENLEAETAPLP

SMILES: O=C(N[C@@H]1CC[C@@]2(O)[C@H]3Cc4ccc(O)c5c4[C@@]2(CCN3CC2CC2)[C@H]1O5)c1ccc(Br)cc1 [17-Cyclopropylmethyl-3,14beta-dihydroxy-4,5alpha-epoxy-6beta-[(4'-bromo)benzamido]morphinan-oxalate]
- pKi: < 5.00

Reference: BindingDB's records for doi:10.1016/j.bmc.2009.07.069 (Human Biomolecular Research Institute, 2009)
